{"source": "paper PMC6804113", "about": "“Cyclic Peptides Acting as Allosteric Inhibitors of Human Thymidylate Synthase and Cancer Cell Growth” (Molecules, 2019)", "origin": "cited, not measured here", "key": {"[1]": {"system": "hTS", "design": "method as in PMID 27250901", "conditions": "lysates of HEK293T cells; ref [19]; cited from earlier work"}, "[2]": {"system": "C13 cells", "conditions": "cited from earlier work"}}}
{"substance": "Leu-Ser-Cys-Gln-Leu-Tyr-Gln-Arg (LSCQLYQR; printed: Leu-Ser-Cys-Gln-Leu-Tyr-Gln-Arg) [LR]", "values": [{"measurement": "concentration of peptide bound to hTS", "setting": "[1]", "result": 2.5, "unit": "µmol/L"}, {"measurement": "concentration of peptide interacting with other targets", "setting": "[1]", "result": 30, "unit": "nmol/L"}, {"measurement": "intracellular concentration relative to extracellular concentration", "setting": "[2]", "result": 15, "unit": "times"}]}
